Among the data in patent publication US5658908A (priority 1992, dated 1997) are IC50 values, retold here.

Amino acid sequences for entries named in this document (tags omitted).
UniProt P33535, whole entry: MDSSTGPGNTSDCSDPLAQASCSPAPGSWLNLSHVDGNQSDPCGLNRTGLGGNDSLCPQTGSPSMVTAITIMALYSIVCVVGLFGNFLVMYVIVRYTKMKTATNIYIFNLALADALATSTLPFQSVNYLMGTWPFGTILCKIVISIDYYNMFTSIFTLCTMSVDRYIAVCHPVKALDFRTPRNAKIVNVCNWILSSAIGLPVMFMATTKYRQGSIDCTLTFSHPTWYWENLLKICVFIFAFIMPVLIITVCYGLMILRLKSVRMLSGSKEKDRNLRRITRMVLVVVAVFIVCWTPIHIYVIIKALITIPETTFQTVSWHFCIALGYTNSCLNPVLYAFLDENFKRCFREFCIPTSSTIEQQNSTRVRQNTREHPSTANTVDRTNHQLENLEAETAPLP

By IC50 is commonly meant the concentration needed to halve the response being measured. Higher therefore signals lower potency.

This assay concerns the target T1, Mu Receptor (Rattus norvegicus, UniProt P33535).
T1 construct: Rat (Sprague-Dawley) brain membranes were prepared; from tissue; host or cells: rat (Sprague-Dawley) brain membranes
The experiment in a line: Mu receptor binding, rat brain membranes. On the set-up: species or system rat (Sprague-Dawley). The settings on record: 125I-[D-Ala2,N-MePhe4,Met(O)ol5]enkephalin 0.1 nM, 24° C., 60 min, mean of (n) experiments.
Take `C=CCN1C[C@H](C)N([C@@H](c2cccc(O)c2)c2cccc(C(=O)N(CC)CC)c2)C[C@H]1C` [Example 85, (+)-3-((αR)-α-((2S,5R)-4-Allyl-2,5-dimethyl-1-piperazinyl)-3-hydroxybenzyl)-N,N-diethylbenzamide]: the IC50 came to 3.2 nM. `C=CCN1C[C@H](C)N([C@@H](c2cccc(O)c2)c2cccc(C(=O)N(CC)CC)c2)C[C@H]1C` (relative stereo) [Example 84, (±)-3-((αR*)-α-((2S*,5R*)-4-allyl-2,5-dimethyl-1-piperazinyl)-3-hydroxybenzyl)-N,N-diethylbenzamide] showed a half-inhibitory concentration (IC50) of 3 nM. The compound `C=CCN1C[C@H](C)N([C@H](c2ccc(C(=O)N(CC)CC)cc2)c2cccc(O)c2)C[C@H]1C` (relative stereo) [Example 6, (±)-4-((αR*)-α-((2S*,5R*)-4-Allyl-2,5-dimethyl-1-piperazinyl)-3-hydroxybenzyl)-N,N-diethylbenzamide] displayed an IC50 of 15 nM.

With `C=CCN1C[C@H](C)N([C@H](c2ccc(C(=O)N(CC)CC)cc2)c2cccc(O)c2)C[C@H]1C` [Example 6a, (+)-4-((αR)-α-((2S,5R)-4-Allyl-2,5-dimethyl-1-piperazinyl)-3-hydroxybenzyl)-N,N-diethylbenzamide], the IC50 was 5 nM.
